Here are results for five molecules from PubChem BioAssay.

Amino acid sequences for entries named in this document (tags omitted). A change or cut given only in a name is not applied to a line headed by its entry.
UniProt Q9UM07, whole entry, looked up: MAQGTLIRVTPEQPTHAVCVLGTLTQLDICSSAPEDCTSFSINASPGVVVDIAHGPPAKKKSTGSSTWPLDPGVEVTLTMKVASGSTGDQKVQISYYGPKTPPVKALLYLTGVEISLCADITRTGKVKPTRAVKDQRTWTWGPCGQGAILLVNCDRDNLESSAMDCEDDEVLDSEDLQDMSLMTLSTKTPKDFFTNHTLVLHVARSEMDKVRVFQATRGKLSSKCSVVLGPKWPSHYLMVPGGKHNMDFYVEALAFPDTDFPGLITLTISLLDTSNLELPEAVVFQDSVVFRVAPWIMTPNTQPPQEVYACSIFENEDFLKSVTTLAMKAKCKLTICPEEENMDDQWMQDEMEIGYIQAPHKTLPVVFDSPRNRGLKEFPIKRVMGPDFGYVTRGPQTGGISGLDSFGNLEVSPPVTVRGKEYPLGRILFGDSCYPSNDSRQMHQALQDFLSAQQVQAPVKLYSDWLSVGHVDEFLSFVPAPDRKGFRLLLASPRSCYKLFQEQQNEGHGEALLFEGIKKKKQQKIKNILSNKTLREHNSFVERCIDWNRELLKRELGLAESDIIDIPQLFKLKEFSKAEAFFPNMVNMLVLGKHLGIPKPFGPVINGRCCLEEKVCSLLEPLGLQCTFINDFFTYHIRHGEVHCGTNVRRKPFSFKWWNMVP
UniProt Q9NR96: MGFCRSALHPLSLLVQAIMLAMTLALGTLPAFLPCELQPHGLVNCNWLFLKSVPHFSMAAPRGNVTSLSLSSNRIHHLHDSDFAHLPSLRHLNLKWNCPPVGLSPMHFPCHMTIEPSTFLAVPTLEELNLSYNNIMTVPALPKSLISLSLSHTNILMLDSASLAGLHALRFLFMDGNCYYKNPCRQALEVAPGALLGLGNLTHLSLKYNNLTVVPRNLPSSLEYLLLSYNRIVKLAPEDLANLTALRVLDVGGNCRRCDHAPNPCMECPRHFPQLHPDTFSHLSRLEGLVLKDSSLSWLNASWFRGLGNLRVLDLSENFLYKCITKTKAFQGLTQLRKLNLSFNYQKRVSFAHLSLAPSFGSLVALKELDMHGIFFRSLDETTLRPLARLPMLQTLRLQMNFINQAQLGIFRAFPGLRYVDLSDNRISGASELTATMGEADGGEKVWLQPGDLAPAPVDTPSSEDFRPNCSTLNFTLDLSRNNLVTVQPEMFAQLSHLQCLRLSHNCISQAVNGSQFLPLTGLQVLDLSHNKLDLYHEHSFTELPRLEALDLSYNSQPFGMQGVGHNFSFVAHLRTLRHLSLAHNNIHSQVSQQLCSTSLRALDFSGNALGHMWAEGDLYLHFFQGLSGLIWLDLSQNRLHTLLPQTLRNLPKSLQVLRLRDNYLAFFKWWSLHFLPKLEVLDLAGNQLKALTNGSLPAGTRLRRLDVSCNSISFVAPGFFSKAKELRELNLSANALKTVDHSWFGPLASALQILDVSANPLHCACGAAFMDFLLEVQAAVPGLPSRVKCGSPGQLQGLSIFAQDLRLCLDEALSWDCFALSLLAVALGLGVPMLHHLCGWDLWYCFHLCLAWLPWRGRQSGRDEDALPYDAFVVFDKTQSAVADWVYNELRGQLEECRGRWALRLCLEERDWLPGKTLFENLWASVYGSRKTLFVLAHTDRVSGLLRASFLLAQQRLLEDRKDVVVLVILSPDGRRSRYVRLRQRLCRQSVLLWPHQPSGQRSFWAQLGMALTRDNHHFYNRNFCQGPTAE
UniProt P24468: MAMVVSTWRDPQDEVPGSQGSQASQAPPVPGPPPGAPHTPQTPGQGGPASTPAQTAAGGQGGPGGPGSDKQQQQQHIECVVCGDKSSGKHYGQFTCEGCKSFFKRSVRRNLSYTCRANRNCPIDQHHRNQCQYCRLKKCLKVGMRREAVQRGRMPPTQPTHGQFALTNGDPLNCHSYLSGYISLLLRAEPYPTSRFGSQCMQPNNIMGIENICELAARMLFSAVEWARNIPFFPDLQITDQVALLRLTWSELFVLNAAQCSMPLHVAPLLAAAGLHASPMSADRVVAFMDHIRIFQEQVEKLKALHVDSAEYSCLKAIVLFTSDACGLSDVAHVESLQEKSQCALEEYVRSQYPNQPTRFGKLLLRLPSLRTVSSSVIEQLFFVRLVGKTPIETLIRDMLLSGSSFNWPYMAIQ
UniProt Q15788: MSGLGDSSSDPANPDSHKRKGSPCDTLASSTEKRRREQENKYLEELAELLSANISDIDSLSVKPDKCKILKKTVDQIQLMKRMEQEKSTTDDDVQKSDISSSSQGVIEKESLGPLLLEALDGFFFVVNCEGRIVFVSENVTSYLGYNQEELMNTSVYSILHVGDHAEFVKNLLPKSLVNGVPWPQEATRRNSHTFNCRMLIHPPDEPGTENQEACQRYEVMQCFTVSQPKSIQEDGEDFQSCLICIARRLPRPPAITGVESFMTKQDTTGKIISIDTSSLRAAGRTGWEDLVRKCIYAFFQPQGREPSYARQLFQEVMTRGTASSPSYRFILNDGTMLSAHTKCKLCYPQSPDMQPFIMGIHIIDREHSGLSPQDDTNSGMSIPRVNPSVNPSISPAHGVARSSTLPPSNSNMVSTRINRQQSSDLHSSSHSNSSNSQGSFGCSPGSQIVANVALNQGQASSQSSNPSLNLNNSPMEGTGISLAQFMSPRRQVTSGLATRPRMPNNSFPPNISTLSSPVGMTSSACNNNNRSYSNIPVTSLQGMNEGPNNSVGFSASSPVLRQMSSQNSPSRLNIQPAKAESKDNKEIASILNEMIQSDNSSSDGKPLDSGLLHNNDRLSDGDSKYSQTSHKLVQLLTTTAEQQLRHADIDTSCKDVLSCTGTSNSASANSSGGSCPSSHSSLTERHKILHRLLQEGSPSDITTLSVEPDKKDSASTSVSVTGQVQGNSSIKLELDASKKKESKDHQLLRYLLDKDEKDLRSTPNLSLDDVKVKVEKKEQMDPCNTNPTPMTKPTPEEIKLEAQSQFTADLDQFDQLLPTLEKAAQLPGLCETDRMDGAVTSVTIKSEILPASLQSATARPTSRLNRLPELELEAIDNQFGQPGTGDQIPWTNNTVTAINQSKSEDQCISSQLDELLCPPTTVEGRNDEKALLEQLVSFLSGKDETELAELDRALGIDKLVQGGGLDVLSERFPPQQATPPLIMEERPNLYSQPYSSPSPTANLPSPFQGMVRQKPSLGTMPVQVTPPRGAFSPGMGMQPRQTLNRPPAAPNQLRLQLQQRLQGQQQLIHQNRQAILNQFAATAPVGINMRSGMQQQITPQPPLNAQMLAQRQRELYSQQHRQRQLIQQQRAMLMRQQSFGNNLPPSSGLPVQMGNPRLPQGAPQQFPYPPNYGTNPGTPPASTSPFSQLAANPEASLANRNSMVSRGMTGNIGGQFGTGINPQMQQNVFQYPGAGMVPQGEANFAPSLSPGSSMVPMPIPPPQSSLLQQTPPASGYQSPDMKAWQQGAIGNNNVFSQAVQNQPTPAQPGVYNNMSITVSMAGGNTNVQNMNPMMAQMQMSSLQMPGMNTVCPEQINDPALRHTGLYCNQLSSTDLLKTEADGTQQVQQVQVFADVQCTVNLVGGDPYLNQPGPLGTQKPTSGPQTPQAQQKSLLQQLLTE

Assay [1] addresses Protein-arginine deiminase type-4 (Homo sapiens) (UniProt Q9UM07). Briefly: human PAD4 inhibitors, primary screen, biochemical, fluorescence polarization (AID 463073).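 Note: 0% = PAD4 with DMSO and 100% = wells lacking PAD4.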 Conditions: recombinant PAD4, RFA probe fluorescence polarization; at 5 µM; active compounds read high. In outline: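 System: recombinant PAD4. Amount: PAD4 at 2 µM in dispensed buffer, before additions. Doses: single 5 µM final compound concentration. Timing: 30 min 25 °C preincubation, 5 h 37 °C labeling. Benchmarks: wells lacking PAD4 as full-inhibition control. Repeats: single well per compound. Measured by: FP, ex 525 nm, em 598 nm.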

The target in assay [2] is Toll-like receptor 9 (Homo sapiens) (UniProt Q9NR96). Description: TLR9-MyD88 association inhibitors, retest, confirmation, cell-based, CHO, BLA complementation, fluorescence, triplicate (AID 540250;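 active = mean inhibition across three repeats above about 21% taken from the earlier screen, limit read from the data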;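 note: blue over green emission ratio reports constitutive TLR9 MyD88 association via BLA complementation; 0% = DMSO vehicle wells and 100% = clavulanate BLA inhibitor wells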). Conditions: CCF4 FRET ratio, at 4.98 µM, active compounds read high.
Assay [3] in a line: beta-lactamase reporter inhibitors in CHO cells, artefact control for TLR9-MyD88 binding inhibitor project, cell-based, fluorescence (AID 540251;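 active = mean inhibition above a 50% cutoff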;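 note: counterscreen of TLR9-MyD88 hits on CMV-driven BLA in CHO-K1 cells; 0% = DMSO alone and 100% = clavulanate blocking BLA; higher means less blue over green ratio so more BLA blockade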). Conditions: CHO-BLA cells, CCF4 FRET ratio, at 4.98 µM, active compounds read high.
The nature of assay [4]: CHO cell viability loss – luminescence, single concentration, cytotoxicity control for TLR9-MyD88 binding inhibitor project (AID 588336; in the data active = inhibition above about 11%). Conditions: TLR9-MyD88 CHO cells cytotoxicity, at 4.98 µM, active compounds read high.
In assay [5] the target is COUP transcription factor 2 (Homo sapiens) (UniProt P24468). Briefly: NR2F2 transcriptional activity inhibitors, confirmation, cell-based, luciferase reporter, HEK293, triplicate (AID 687008;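 active = mean inhibition over three repeats above a set limit taken from the earlier primary screen, cut at about 38% in these data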;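 note: 100% = cells given the luciferase reporter alone without the COUP-TF2 vector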). The settings on record: HEK293 NGFI-A luciferase reporter, luminescence; at 8.5 µM; active compounds read high. For orientation: Reporter assays use an easily measured gene product as a stand-in for the process of interest.

The target in assay [6] is Nuclear receptor coactivator 1 (Homo sapiens) (UniProt Q15788). Briefly: SRC1 coactivator transcriptional activity inhibitors, confirmation, cell-based, luminescence, quadruplicate (AID 588820;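 active = mean inhibition above 46.68%, the untreated control wells mean plus 3 SD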;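 note: 0% = DMSO wells and 100% = gossypol 36 µM treated wells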). Conditions: HEK293 GAL4-SRC1 luciferase reporter, at 3.6 µM, active compounds read high.
Assay [7] relates to TLR4-MyD88 interaction (human), BLA complementation. Briefly: TLR4-MyD88 association inhibitors, retest, confirmation, cell-based, HeLa CL3-4, BLA complementation, FRET ratio (AID 941;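 active = mean inhibition across three repeat runs above about 25% carried over from the earlier screen, limit read from the data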;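 note: plate controls were DMSO only for no effect and clavulanic acid blocking BLA at full dose for full effect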). The settings on record: CCF4 FRET ratio, at 8.4 µM, active compounds read high.
Assay [8] in a line: inhibitors of full-length beta-lactamase reporter, confirmation, artefact control for TLR4-MyD88 binding inhibitor project, cell-based, HeLa, full-length BLA, CCF4 FRET ratio (AID 1237;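 active = mean inhibition over three repeats above about 26% taken from the earlier screen, limit read from the data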;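 note: HeLa cells stably expressing beta-lactamase reporter as counterscreen for TLR4-MyD88 inhibitors; 0% = DMSO and 100% = clavulanic acid full inhibition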). Conditions: at 8.4 µM, active compounds read high.

SMILES strings stand for the structures. The entries are a selection whose mix differs from that of the whole data set. Active and inactive are the calls of the source.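 Rule for the calls, unless noted: active = inhibition above 30%; inactive = the rest.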

Regarding `CN(C(=O)Cc1ccc(Cl)c(Cl)c1)[C@@H]1CCCC[C@H]1N1CCCC1`, the inhibition in assay [1] is inactive: 0.13%.
`CN(C)C(=O)c1cc([N+](=O)[O-])cc2c1-c1c(cc([N+](=O)[O-])cc1[N+](=O)[O-])C2=O`: the inhibition was inactive: 16.5% in assay [2], inactive: 15.8% in assay [3] and active: 86.4% in assay [4].
In the case of `C[N+]1=C2C=CC=CC=C2SC12C([N+](=O)[O-])=CC([N+](=O)[O-])=C[C-]2[N+](=O)[O-]` (stereo not drawn), the inhibition in assay [5] is inactive: 0.21%.
With `CC(C)c1ccc(OP(=O)(Nc2ccccn2)Oc2ccccc2F)cc1` (stereo not drawn), the inhibition in assay [6] is inactive: 0.81%.
With `Cc1c2non([O-])c-2c(C)[n+](=O)[n+]1[O-]`, the inhibition in assay [7] is inactive: 14.5%; in assay [8], inactive: 16.7%.

Broadly, the inhibition is how much of the control response was suppressed.
